Env fusion inh – inhibitors of HIV-1 Env-driven cell-cell fusion, primary screen, HeLa-JRFL effector, CEM21 target cells, luciferase | inhibition, % at 12.3 µM | hit rate 1.1% among 360,000 | AID 651610, 2012;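 active = mean replicate inhibition score of at least 50 and every replicate individually at or above 50; inconclusive = only one of the two criteria met; inactive = mean below 50 and not all replicates reaching 50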;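 note: 0% = plate neutral controls and 100% = maraviroc near 300 nM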
PGC1a acetyl inh – inhibitors of PGC1a acetylation signal, primary screen, cell-based, U2OS, AlphaScreen, inhibitor mode. AlphaScreen anti-acetyl-lysine; with virally co-expressed GCN5 acetyltransferase. inhibition, % at 15.6 µM. hit rate 0.17% among 350,000;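 active = every replicate shows inhibition of at least 40%; inconclusive = mean inhibition at least 40% but some replicate below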;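 note: 0% = neutral control wells and 100% = positive control wells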
FN deposit inh – inhibitors of fibronectin matrix deposition, primary screen, AH1F cells, Alexa488-fibronectin fluorescence, plate reader; hit rate 0.086% among 350,000; AID 743247, 2014; AH1F fibroblasts, overnight; inhibition, % at 12.6 µM;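 active = mean inhibition across replicates of 30% or more, regardless of how many single replicates reach that level; inconclusive = mean under 30% yet at least half of replicates reach 30%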;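 note: positive control wells lacked labelled fibronectin entirely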
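Material – AH1F fibroblast monolayer, labelled fibronectin deposition · Reagent – labelled fibronectin 24 nM · Timing – 1 h adhesion, overnight exposure · Measured by – fluorescence at 485 nm excitation, 525 nm emission · Read-out – inhibition of fibronectin deposition signal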
miR122 inh – miR-122 Renilla sensor signal increase in Huh7, primary screen, miR-122 inhibitor project, cell-based, single point, plate reader; hit rate 0.3% among 340,000; activation (reporter increase), % at 12.5 µM; AID 602342, 2012; Huh7 miR-122 Renilla luciferase sensor, 48 h; neutral wells = 0, positive control = 100;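 active = mean replicate activation score at least 90 and every replicate individually at or above 90; inconclusive = only one of the two criteria met; inactive = neither criterion met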;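 note: higher luciferase means less miR-122 activity so hits act as miR-122 inhibitors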
UUG fidelity – modulators of yeast start codon fidelity, primary screen, whole organism, S. cerevisiae, single point, plate reader; S. cerevisiae UUG-firefly luciferase reporter, luminescence/redox ratio; activity score, % at 18.7 µM; 0.13% of 350,000 active; AID 602363, 2012;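 active = replicate mean at a twofold rise or more, about +100% in these data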;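 also: firefly luciferase made from a UUG start codon reports start codon fidelity; reporter light over untreated wells divided by growth signal over untreated wells; some hits fall short of that in this replicate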
Cneo AK release – Cryptococcus neoformans cell lysis inducers, primary screen, AK release luminescence, single concentration. C. neoformans lysis, adenylate kinase release luminescence, 4 h; normalised: neutral wells 0, clomiphene wells 100. lysis activity, % at 15 µM. hit rate 0.2% among 360,000. AID 651654, 2012;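 active = mean lysis activity across replicates of at least 80%, whatever share of replicates individually reach that level; inactive = mean lysis activity below 80%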
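Test system: log-phase Cryptococcus neoformans yeast cells. Input: 5 × 10^6 yeast cells/mL. Medium: fresh YPD growth medium. Doses: single dose. Incubation: static 4 h at 37 °C with compound, 1 h detection. Measured by: luminescent adenylate kinase detection reagent. Read-out: signal increase indicating cell lysis. Benchmarks: Clomiphene.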
Active calls of the source: *; ? = inconclusive; . = not tested or not shown; [ ] = remark or other dose. The list is not random: actives were taken first. Their share in the collection is about 1.5%.

SMILES	Env fusion inh	PGC1a acetyl inh	FN deposit inh	miR122 inh	UUG fidelity	Cneo AK release
C[C@H](CO)N1C[C@H](C)[C@H](CN(C)Cc2ccc(Cl)c(Cl)c2)OCCCC[C@H](C)Oc2ccc(NS(=O)(=O)c3ccc(F)cc3)cc2C1=O	88.5*[16.7 µM]	-3.9	3.8	-7.9[16.7 µM]	15.5	1.7
COc1ccc(S(=O)(=O)Nc2ccc3c(c2)C(=O)N([C@@H](C)CO)C[C@H](C)[C@H](CN(C)Cc2ccc(Cl)c(Cl)c2)OCCCC[C@@H](C)O3)cc1	11.0[16.7 µM]	4.1	.	-12.1[16.7 µM]	.	1.0
C[C@@H]1CCCCO[C@@H](CN(C)Cc2ccc3c(c2)OCO3)[C@@H](C)CN([C@H](C)CO)C(=O)c2cc(NS(=O)(=O)c3ccc(F)cc3)ccc2O1	-14.2[16.7 µM]	9.0	-16.4	-1.8[16.7 µM]	27.7	112.8*
C[C@@H]1CN([C@H](C)CO)C(=O)c2cc(NS(C)(=O)=O)ccc2O[C@H]1CN(C)Cc1ccc(Cl)c(Cl)c1	4.9[16.7 µM]	8.7	.	-2.5[16.7 µM]	10.7	31.4
CC/C(=C/c1ccccc1)c1cccc2[nH]c3c(OC)cccc3c12	58.1*	.	0.1	.	-19.4	-17.9
CCCC(=O)Nc1ccc(NC(=O)c2cccs2)cn1	-23.9	4.4	3.3	-2.9	-7.3	-1.7
CCCCC(=O)Nc1ccc(NC(=O)c2cccs2)cn1	.	48.8*	.	0.5	.	.
CCOc1ccc(NC(=O)c2ccc(N3CC4CC(C3)c3cccc(=O)n3C4)c(NC(=O)CCN3CCOCC3)c2)cc1 (stereo not given)	-13.1	8.8	9.2	1.4	0.3	0.2
O=C1N/C(=C\c2ccccc2)c2ccccc21	-68.8	8.6	.	9.3	-13.4	-1.8
COc1ccc(/C=N/Nc2nncn2N)cc1Br	-6.8	68.6*	8.0	-2.6	-17.1	1.2
COc1ccc(S(=O)(=O)N(CCc2ccccc2)CC(=O)N2CCOCC2)cc1	-8.0	.	0.2	125.2*	5.9	4.9
COc1ccc(CN(C)CC(=O)Nc2ccccc2-c2ccccc2)c(OC)c1	22.5	.	-11.3	.	.	.

A few values from the results shown.
Under Env fusion inh, COc1ccc(CN(C)CC(=O)Nc2ccccc2-c2ccccc2)c(OC)c1 shows 22.5
Under Cneo AK release, C[C@@H]1CN([C@H](C)CO)C(=O)c2cc(NS(C)(=O)=O)ccc2O[C@H]1CN(C)Cc1ccc(Cl)c(Cl)c1 shows 31.4
Under Env fusion inh, COc1ccc(S(=O)(=O)N(CCc2ccccc2)CC(=O)N2CCOCC2)cc1 shows -8.0
Under miR122 inh, O=C1N/C(=C\c2ccccc2)c2ccccc21 shows 9.3
Under FN deposit inh, C[C@H](CO)N1C[C@H](C)[C@H](CN(C)Cc2ccc(Cl)c(Cl)c2)OCCCC[C@H](C)Oc2ccc(NS(=O)(=O)c3ccc(F)cc3)cc2C1=O shows 3.8

Carrying on.
SMILES	Env fusion inh	PGC1a acetyl inh	FN deposit inh	miR122 inh	UUG fidelity	Cneo AK release
CCCN(CCC)C(=O)CSc1nc2ccccc2c(=O)n1C1CCCC1	65.2*	.	-5.6	13.3	-7.5	0.1
Oc1ccc(Br)c(CN2CCN(c3ncc(Cc4ccccc4)cn3)CC2)c1	28.6	.	-6.3	.	.	.
c1ccc(Cc2cnc(N3CCN(Cc4csc5ccccc45)CC3)nc2)cc1	77.0*	.	12.8	.	.	.
C[C@@H]1CN([C@H](C)CO)C(=O)c2cc(NC(=O)c3ccccc3)ccc2O[C@@H](C)CCCCO[C@H]1CN(C)Cc1ccc(C(F)(F)F)cc1	68.6*[16.7 µM]	19.8	.	-5.1[16.7 µM]	16.5	1.6
C[C@@H]1CCCCO[C@H](CN(C)Cc2ccc(C(F)(F)F)cc2)[C@H](C)CN([C@H](C)CO)C(=O)c2cc(NC(=O)c3ccccc3)ccc2O1	89.7*[16.7 µM]	-7.6	.	-12.5[16.7 µM]	14.1	-1.6
C[C@H](CO)N1C[C@H](C)[C@@H](CN(C)Cc2ccc(C(F)(F)F)cc2)OCCCC[C@H](C)Oc2ccc(NC(=O)c3ccccc3)cc2C1=O	2.8[16.7 µM]	15.1	.	2.9[16.7 µM]	8.1	-2.2
C[C@@H]1CCCCO[C@@H](CN(C)Cc2ccc(C(F)(F)F)cc2)[C@H](C)CN([C@H](C)CO)C(=O)c2cc(NC(=O)c3ccccc3)ccc2O1	78.6*[16.7 µM]	-26.4	.	-5.3[16.7 µM]	15.9	-3.5
Cc1cc(NS(=O)(=O)c2ccc(-c3ccccc3)cc2)no1	-33.7	.	1.6	.	.	.
COc1cccc(S(=O)(=O)Nc2ccc3c(c2)[C@H]2C[C@H](CC(=O)NCc4cccc(F)c4)O[C@H](CO)[C@H]2O3)c1	44.0[16.7 µM]	-1.8	8.4	4.5[16.7 µM]	16.1	-1.1
COc1cccc(S(=O)(=O)Nc2ccc3c(c2)[C@H]2C[C@H](CC(=O)NCc4cccc(F)c4)O[C@@H](CO)[C@H]2O3)c1	28.3[16.7 µM]	-8.6	4.0	30.4[16.7 µM]	25.8	93.7*
COc1cccc(S(=O)(=O)Nc2ccc3c(c2)[C@H]2C[C@@H](CC(=O)NCc4ccccc4F)O[C@H](CO)[C@H]2O3)c1	8.0[16.7 µM]	-3.5	.	-7.1[16.7 µM]	.	0.6
COc1cccc(S(=O)(=O)Nc2ccc3c(c2)[C@@H]2C[C@@H](CC(=O)NCc4cccc(F)c4)O[C@H](CO)[C@@H]2O3)c1	25.5[16.7 µM]	0.9	-0.4	8.6[16.7 µM]	11.8	105.9*
COc1cccc(S(=O)(=O)Nc2ccc3c(c2)[C@H]2C[C@H](CC(=O)NCc4ccccc4F)O[C@@H](CO)[C@H]2O3)c1	6.6[16.7 µM]	-7.6	.	8.2[16.7 µM]	.	94.6*
CCN(CC)S(=O)(=O)c1ccc(N2C(=O)CC2(/C=C/c2ccccc2)C(=O)NC2CCCC2)cc1 (stereo not given)	-10.8	9.4	-6.7	1.1	-8.8	0.9
COc1ccc(/C=C/C(=O)c2ccc([N+](=O)[O-])o2)cc1OC	-143.5	.	35.3*	.	.	.
O=C(/C=C/c1cccc(Cl)c1)c1ccc([N+](=O)[O-])o1	?	.	59.1*	.	-14.3	-4.2
COc1cc(/C=C/C(=O)c2ccc([N+](=O)[O-])o2)ccc1O	-297.0	.	-7.9	.	-17.0	-4.4
Cn1c(CN2CCCCC2)nc2cc(NC(=O)c3ccc(Cl)cc3)ccc21	78.5*	11.9	-2.2	-4.1	-27.1	3.9
Cn1c(CN2CCCC2)nc2cc(NC(=O)COc3ccc(Cl)cc3)ccc21	.	52.3*	.	.	-3.0	9.3
Cc1ccc(OCC(=O)Nc2ccc3c(c2)nc(CCN2CCN(c4ccccn4)CC2)n3C)cc1	60.6*	.	6.7	-5.7	-9.8	-1.5
CC(C)=CCC/C(C)=C/CNC(=O)C[C@H]1C[C@H](C(=O)N2CCOCC2)[C@@]2(CCC3CCCC3)c3[nH]c4cc(CCC(=O)N(C)C)ccc4c3CCN2C1=O	12.6	.	-0.4	.	-15.0	-1.9
CCN1CCN(CC(=O)Nc2ccc(OC(F)(F)F)cc2)CC1	2.9	.	3.4	1.0	-9.5	0.1
COc1ccc(CCN(Cc2cccs2)S(=O)(=O)c2ccc(-n3cnnn3)cc2)cc1OC	86.4*	-19.8	-2.3	68.7	-12.3	-3.2
Cc1ccc(S(=O)(=O)Nc2cccnc2)cc1	-12.4	-14.7	4.6	-1.5	-1.4	-1.3

The closing 2 compounds of the section before come first, to join the parts.
SMILES	Env fusion inh	PGC1a acetyl inh	FN deposit inh	miR122 inh	UUG fidelity	Cneo AK release
COc1ccc(CCN(Cc2cccs2)S(=O)(=O)c2ccc(-n3cnnn3)cc2)cc1OC	86.4*	-19.8	-2.3	68.7	-12.3	-3.2
Cc1ccc(S(=O)(=O)Nc2cccnc2)cc1	-12.4	-14.7	4.6	-1.5	-1.4	-1.3
CCCCOc1ccc(S(=O)(=O)Nc2cccnc2)cc1	69.1*	3.9	14.8	-1.1	-19.8	-1.2
O=S(=O)(c1ccc(-n2cnnn2)cc1)N1CCC(N2CCCCC2)CC1	-3.4	.	2.6	-22.1	.	.
CN(C)C(=O)CSc1nnc(Cc2ccccc2)n1Cc1ccco1	-2.0	.	6.8	.	.	.
O=C(CSc1nnc(Cc2cccs2)n1Cc1ccco1)Nc1ccc(Br)cc1	.	-22.2	.	13.6	-10.2	-0.3
O=C(CSc1nnc(Cc2ccccc2)n1Cc1ccco1)NC12CC3CC(CC(C3)C1)C2	57.6*	-9.8	.	9.6	-1.4	-6.0
